Assay results as given in ChEMBL document CHEMBL4831512 (J Med Chem, 2021).

Chains of the proteins cited; added tags and fusions are not shown.
UniProt P42336, whole entry: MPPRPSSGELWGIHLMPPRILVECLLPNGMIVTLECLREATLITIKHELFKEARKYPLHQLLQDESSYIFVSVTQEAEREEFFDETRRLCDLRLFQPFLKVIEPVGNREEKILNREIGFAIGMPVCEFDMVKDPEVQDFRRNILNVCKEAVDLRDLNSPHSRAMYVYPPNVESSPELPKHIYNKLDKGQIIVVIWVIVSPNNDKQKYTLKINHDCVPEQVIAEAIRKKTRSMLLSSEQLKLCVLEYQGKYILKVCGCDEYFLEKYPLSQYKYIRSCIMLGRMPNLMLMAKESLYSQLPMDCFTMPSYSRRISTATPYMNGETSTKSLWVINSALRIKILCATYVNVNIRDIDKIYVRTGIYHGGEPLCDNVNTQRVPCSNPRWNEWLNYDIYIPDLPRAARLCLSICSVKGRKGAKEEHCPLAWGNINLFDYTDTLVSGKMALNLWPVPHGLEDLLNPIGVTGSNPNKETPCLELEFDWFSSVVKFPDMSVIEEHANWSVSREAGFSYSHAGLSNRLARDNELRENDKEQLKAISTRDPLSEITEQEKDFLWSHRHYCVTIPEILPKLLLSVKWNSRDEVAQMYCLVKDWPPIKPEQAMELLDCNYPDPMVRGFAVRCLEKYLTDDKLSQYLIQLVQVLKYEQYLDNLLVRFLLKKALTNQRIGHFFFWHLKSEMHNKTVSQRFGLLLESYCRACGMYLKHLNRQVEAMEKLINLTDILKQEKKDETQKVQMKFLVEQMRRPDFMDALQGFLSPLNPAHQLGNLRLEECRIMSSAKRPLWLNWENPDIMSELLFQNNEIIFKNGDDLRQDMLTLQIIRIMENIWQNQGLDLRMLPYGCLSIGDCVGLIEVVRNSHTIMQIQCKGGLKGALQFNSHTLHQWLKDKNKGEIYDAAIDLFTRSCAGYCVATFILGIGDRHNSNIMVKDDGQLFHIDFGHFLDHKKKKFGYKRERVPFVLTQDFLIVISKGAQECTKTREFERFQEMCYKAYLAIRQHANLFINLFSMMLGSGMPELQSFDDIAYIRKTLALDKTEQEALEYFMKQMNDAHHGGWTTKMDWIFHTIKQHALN

Biological target: Phosphatidylinositol 4,5-bisphosphate 3-kinase catalytic subunit alpha isoform (Homo sapiens, UniProt P42336)
Type: cell-based, Fibroblast

- IC50: 6.25 µM
Structure (SMILES): Cc1ncc(-c2cc(-c3cc(S(=O)(=O)NCC(C)(C)O)ccc3C)cnc2N)o1
